Experimental findings from patent publication US20040197858 are described below.

Consider purified recombinant α-thrombin, for which, in the data set with fibrinogen, the Conversion of fibrinogen into fibrin: kcat/Km for FpA turned out to be 1.09e+07 M⁻¹ s⁻¹. For the same substance, in the data set with Protein C, the Activation of Protein C (TM+, thrombomodulin present): Km was 6.2 µM; the Activation of Protein C (TM+, thrombomodulin present): kcat came out at 1.44 s⁻¹; the Activation of Protein C (TM+, thrombomodulin present): kcat/Km was determined as 233000 M⁻¹ s⁻¹; the Activation of Protein C (TM-): Km amounted to 15.7 µM. In the data set on Protein C, this substance returned an Activation of Protein C (TM-): kcat of 0.152 s⁻¹ and an Activation of Protein C (TM-): kcat/Km of 9670 M⁻¹ s⁻¹.
purified α-thrombin derived from plasma returned a Conversion of fibrinogen into fibrin: kcat/Km for FpA with fibrinogen of 1.06e+07 M⁻¹ s⁻¹. For the same substance, in the data set with Protein C, the Activation of Protein C (TM+, thrombomodulin present): Km was 5.5 µM; the Activation of Protein C (TM+, thrombomodulin present): kcat was determined as 1.43 s⁻¹; the Activation of Protein C (TM+, thrombomodulin present): kcat/Km is 258000 M⁻¹ s⁻¹; the Activation of Protein C (TM-): Km was found to be 16.3 µM. In addition, in the data set with Protein C, the Activation of Protein C (TM-): kcat came out at 0.142 s⁻¹ and the Activation of Protein C (TM-): kcat/Km is 8670 M⁻¹ s⁻¹.
